Structures are written as SMILES.

By UniProt entry, the sequences of proteins in these tests, tags left out. Residues count along the entry.
UniProt O95069, 1-422 isoform 3: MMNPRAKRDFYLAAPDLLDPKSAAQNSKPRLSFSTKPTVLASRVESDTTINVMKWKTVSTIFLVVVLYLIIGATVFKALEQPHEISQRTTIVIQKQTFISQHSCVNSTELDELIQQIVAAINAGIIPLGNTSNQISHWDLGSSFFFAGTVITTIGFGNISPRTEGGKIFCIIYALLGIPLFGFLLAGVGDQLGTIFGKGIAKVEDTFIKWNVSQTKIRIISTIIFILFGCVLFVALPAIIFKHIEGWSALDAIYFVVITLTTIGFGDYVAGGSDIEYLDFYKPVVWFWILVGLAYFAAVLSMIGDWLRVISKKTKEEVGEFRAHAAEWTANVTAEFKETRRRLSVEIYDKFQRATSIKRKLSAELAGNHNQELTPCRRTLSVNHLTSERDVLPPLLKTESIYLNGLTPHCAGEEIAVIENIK
UniProt P57789, whole entry: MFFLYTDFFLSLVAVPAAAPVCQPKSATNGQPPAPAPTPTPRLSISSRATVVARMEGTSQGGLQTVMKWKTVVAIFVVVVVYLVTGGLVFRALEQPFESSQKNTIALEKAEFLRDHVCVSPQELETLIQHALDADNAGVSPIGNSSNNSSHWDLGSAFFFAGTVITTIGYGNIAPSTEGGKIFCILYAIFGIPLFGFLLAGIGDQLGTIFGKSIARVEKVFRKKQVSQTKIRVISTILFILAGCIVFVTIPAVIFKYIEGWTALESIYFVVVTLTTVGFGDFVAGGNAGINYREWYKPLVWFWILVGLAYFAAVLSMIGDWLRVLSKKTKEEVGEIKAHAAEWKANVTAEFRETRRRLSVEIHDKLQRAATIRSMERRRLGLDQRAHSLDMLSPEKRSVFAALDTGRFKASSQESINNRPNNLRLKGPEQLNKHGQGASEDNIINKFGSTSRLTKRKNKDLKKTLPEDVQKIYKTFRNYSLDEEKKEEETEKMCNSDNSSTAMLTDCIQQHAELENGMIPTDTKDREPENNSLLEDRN

Series [1] deals with T1, hTREK-1 (Homo sapiens, UniProt O95069). The series is described as follows: Whole cell patch clamp on HEK-hTREK-1 cells. As to conditions: 50 µM. For orientation: In patch-clamp work, channel activity is measured electrically.
The test system of series [2] is CD1 mice. Put plainly: Rotarod test. As to conditions: i.p. 10 to 50 mg/kg, 15 min before the test. As for the experimental part:
To evaluate motor coordination, mice were placed on a 9 cm diameter rod with increasing rotating speed until they fell (rotarod apparatus, Bioseb, Vitrolles, France). The day before testing, animals were trained to the test until they could stay on the rod rotating at 4 rpm for 60 s. On test day, animals were placed on the rod at 4 rpm and the apparatus was set to accelerate from 4 to 40 rpm in 300 s. The test began when acceleration started and ended when the animal fell off the rod. The procedure was repeated three times with a 15 min recovery interval and the average latency to fall was calculated for each animal.
To search for possible adverse effects induced by LPS2336 in vivo, we submitted CD1 mice to different confounding tests aiming at characterizing motor coordination, balance, muscle strength and spontaneous locomotor activity. Animals received an intraperitoneal injection of LPS2336.HCl at a dose of 10 to 50 mg/kg 15 min before the test, corresponding to the peak of analgesic effect previously observed. […] Finally, we monitored the body temperature of mice for 45 min after intraperitoneal injection of LPS2336 at 40 mg/kg and could observe hypothermia in both WT and TREK-1 KO (−2.4 and −2.6 °C, respectively) following LPS2336 treatment (Figure 7F,G).
For orientation: The rotarod test checks motor coordination on a turning rod.

The target of series [3] is T1, hTREK-1. The series is described as follows: Thallium flux assay (FluxOR II Green) on HEK-hTREK-1 cells, incl. high throughput screening. The following applies: highest concentration tested (100 µM) compared to lowest (1.7 nM). As for the experimental part:
Cells were plated in 384-well plates with black walls and clear bottom coated with poly-D-lysine (Greiner Bio-One, Kremsmünster, Austria, #781946) at a density of 25 000 cells/well from a 1 250 000 cells/mL solution. Cell counting was performed with an automatic cell counter (Countness II FL, ThermoFisher, Waltham, MA, USA) with addition of trypan blue 0.2% to exclude dead cells. 24 h after plating, cells were incubated with FluxOR II green probe (ThermoFisher) for 1 h in the dark, accordingly to the supplier’s protocol (‘no wash’ procedure) with addition of 77 mg/mL probenecide. […] Fluorescence was measured every 3 s during 1 min (excitation 485 nm, emission 515 nm), and 0.5 mM thallium was added to the wells after a 20 s baseline. […] Fluorescence is normalized using the formula (F − F0)/F0 where F0 is the average fluorescence during the first 18 s of the recording. ΔFmax/F0 is calculated between 18 and 33 s (−2 to 13 s relative to thallium addition). For dose–response curves, ΔFmax/F0 are expressed as %vehicle (100% corresponding to the average ΔFmax/F0 measured in vehicle-treated wells). For high throughput screening, Z scores were calculated as(1) Z=Xsample−X¯neg/σneg where X represents ΔFmax/F0 and σ the ΔFmax/F0 standard deviation. ‘neg’ represents negative controls (vehicle-treated wells). […]

Series [4] has as its target human TREK2 (Homo sapiens, UniProt P57789). Put plainly: Whole cell patch clamp on HEK-hTREK2 cells. As to conditions: 50 µM, p = 0.0959.

As for `N#CCN1CCC(Cc2ccccc2)CC1` [LPS2336], in series [1], the “current increase compared with free base” value is given as “comparable to that of LPS2336”. In series [2], the “performance on rotarod (motor coordination)” value is given as “performed normally”. Also, the “increase in ΔFmax/F0” value in series [3] came out at 2.26 fold. Further, the “increase in TREK-2 current” value in series [4] is 2.78 folds.

Values taken from publication PMC12109561, “LPS2336, a New TREK-1 Channel Activator Identified by High Throughput Screening” (Biomolecules, 2025).
